Source: patent US20240309099A1

Target: human HER3 (purchased from Acro Bio) (human) (UniProt P21860)
Assay: BLI (Octet384), antibody captured on AHC tips, HER3 (Acro Bio) 0-100 nM in solution, global 1:1 fit

Kd: 106 nM
Response: 0.372
koff: 0.0321 s⁻¹
kon: 303000 M⁻¹ s⁻¹
Substance: SI-1X24 (bispecific antibody; other documents disagree on this pair)
